The values that follow come from ChEMBL document CHEMBL3885881, “DrugMatrix”.

For this data set, the species on record is Rattus norvegicus. The data set is described as follows: DrugMatrix - Regimen: Daily Repeat. The format is toxicity, organism-based, Sprague-Dawley. Also on record: regimen Daily Repeat, gender Male, age 6-8 weeks. As to conditions: in vivo.
[1] abbreviates: po, 0 mg/kg, 120 h, tissue Plasma, route oral GAVAGE, dose level Control, time 5 day, […].
Where [2] appears, read: po, 10 mg/kg, 72 h, tissue Plasma, route oral GAVAGE, dose level M1, time 3 day, […].
Where [3] appears, read: po, 10 mg/kg, 120 h, tissue Plasma, route oral GAVAGE, dose level M1, time 5 day, […].
The mark [4] stands for this setting: po, 32 mg/kg, 72 h, tissue Plasma, route oral GAVAGE, dose level M2, time 3 day, […].
Setting [5] is: po, 32 mg/kg, 120 h, tissue Plasma, route oral GAVAGE, dose level M2, time 5 day, […].
[6] abbreviates: po, 64 mg/kg, 72 h, tissue Plasma, route oral GAVAGE, dose level High, time 3 day, […].
[7] abbreviates: po, 64 mg/kg, 120 h, tissue Plasma, route oral GAVAGE, dose level High, time 5 day, […].
Where [8] appears, read: po, […], 72 h, tissue Plasma, route oral GAVAGE, dose 2.5 mg/Kg, dose level Low, time 3 day.
[9] abbreviates: po, […], 120 h, tissue Plasma, route oral GAVAGE, dose 2.5 mg/Kg, dose level Low, time 5 day.
Where [10] appears, read: po, 0 mg/kg, 72 h, tissue Plasma, route oral GAVAGE, dose level Control, time 3 day, vehicle 100 % WATER.
The mark [11] stands for this setting: po, 47 mg/kg, 120 h, tissue Plasma, route oral GAVAGE, dose level Low, time 5 day, vehicle .5 % CMC.
Where [12] appears, read: po, 500 mg/kg, 72 h, tissue Plasma, route oral GAVAGE, dose level High, time 3 day, vehicle .5 % CMC.
Setting [13] is: po, 500 mg/kg, 120 h, tissue Plasma, route oral GAVAGE, dose level High, time 5 day, vehicle .5 % CMC.

Turning to `CC/C(=C(\c1ccccc1)c1ccc(OCCN(C)C)cc1)c1ccccc1` [TAMOXIFEN], the CHLORIDE is 101.83 MEQ/L (po, 0 mg/kg, 72 h, tissue Plasma, route oral GAVAGE, dose level Control, time 3 day, […]); 104.67 MEQ/L under setting [2]; 106 MEQ/L under setting [3]; 105.33 MEQ/L under setting [4]; 108.67 MEQ/L under setting [5]; 104 MEQ/L under setting [6]. Besides, the CHLORIDE under setting [7] is given as 101.67 MEQ/L, the CHLORIDE under setting [8] is on record as 102.33 MEQ/L and the CHLORIDE under setting [9] came out at 100.33 MEQ/L. Also, the PHOSPHORUS by setting is: under setting [1], 10.02 mg/dL; under setting [2], 12.97 mg/dL; under setting [3], 13.3 mg/dL; under setting [4], 13.4 mg/dL; under setting [5], 12.2 mg/dL; under setting [6], 9.57 mg/dL. Also, the PHOSPHORUS by setting is: under setting [7], 10.47 mg/dL; under setting [8], 9.97 mg/dL; under setting [9], 10.47 mg/dL. Besides, the SODIUM is, setting by setting: under setting [1], 144.63 MEQ/L; under setting [2], 145.9 MEQ/L; under setting [3], 148.9 MEQ/L; under setting [4], 146.47 MEQ/L; under setting [5], 152.07 MEQ/L; under setting [6], 147.93 MEQ/L. In addition, the SODIUM came out at 146.1 MEQ/L under setting [7], 147.73 MEQ/L under setting [8] and 145.8 MEQ/L under setting [9].

Regarding `CN(C)CCCN1c2ccccc2CCc2ccc(Cl)cc21` [CLOMIPRAMINE], the “PLATELET COUNT” value runs as follows: (po, 70 mg/kg, 72 h, tissue Blood, route oral GAVAGE, dose level Low, time 3 day, vehicle 100 % WATER) 1256.33 x10E3/uL; (po, 70 mg/kg, 120 h, tissue Blood, route oral GAVAGE, dose level Low, time 5 day, vehicle 100 % WATER) 1281 x10E3/uL. Further, for the setting “po, 70 mg/kg, 120 h, tissue Plasma, route oral GAVAGE, dose level Low, time 5 day, vehicle 100 % WATER”, the GLUCOSE was found to be 138.67 mg/dL.

Regarding OXALIPLATIN, under “iv, 0 mg/kg, 120 h, tissue Blood, dose level Control, time 5 day, vehicle 100 % SALINE”, the NEUTROPHIL is on record as 9.33%. This compound also returned a PHOSPHORUS (iv, 8 mg/kg, 72 h, tissue Plasma, dose level High, time 3 day, vehicle 100 % SALINE) of 10.17 mg/dL.

`CN[C@H](CC(C)C)C(=O)N[C@H]1C(=O)N[C@@H](CC(N)=O)C(=O)N[C@H]2C(=O)N[C@H]3C(=O)N[C@H](C(=O)N[C@H](C(=O)O)c4cc(O)cc(O)c4-c4cc3ccc4O)[C@H](O)c3ccc(c(Cl)c3)Oc3cc2cc(c3O[C@@H]2O[C@H](CO)[C@@H](O)[C@H](O)[C@H]2O[C@H]2C[C@](C)(N)[C@H](O)[C@H](C)O2)Oc2ccc(cc2Cl)[C@H]1O` [VANCOMYCIN] displayed an LIPASE (iv, 25 mg/kg, 72 h, tissue Plasma, dose level Low, time 3 day, vehicle 100 % SALINE) of 9 u/L and an LIPASE (iv, 25 mg/kg, 120 h, tissue Plasma, dose level Low, time 5 day, vehicle 100 % SALINE) of 8.67 u/L. The NEUTROPHIL is given as 4% (iv, 25 mg/kg, 120 h, tissue Blood, dose level Low, time 5 day, vehicle 100 % SALINE); 11% (iv, 160 mg/kg, 72 h, tissue Blood, dose level High, time 3 day, vehicle 100 % SALINE); 14.33% (iv, 160 mg/kg, 120 h, tissue Blood, dose level High, time 5 day, vehicle 100 % SALINE).

`Cc1nc2n(c(=O)c1CCN1CCC(c3noc4cc(F)ccc34)CC1)CCCC2` [RISPERIDONE]: the MONOCYTE by setting is: (po, 0 mg/kg, 72 h, tissue Blood, route oral GAVAGE, dose level Control, time 3 day, vehicle .5 % CMC) 1.4%; (po, 0 mg/kg, 120 h, tissue Blood, route oral GAVAGE, dose level Control, time 5 day, vehicle .5 % CMC) 1.67%; (po, 22 mg/kg, 120 h, tissue Blood, route oral GAVAGE, dose level High, time 5 day, vehicle .5 % CMC) 1.33%; (po, […], 72 h, tissue Blood, route oral GAVAGE, dose 2.4 mg/Kg, dose level Low, time 3 day, vehicle .5 % CMC) 1%; (po, […], 120 h, tissue Blood, route oral GAVAGE, dose 2.4 mg/Kg, dose level Low, time 5 day, vehicle .5 % CMC) 4.67%.

With `CCN(CC)CCNC(=O)c1cc(Cl)c(N)cc1OC` [METOCLOPRAMIDE], the “MEAN CORPUSCULAR HEMOGLOBIN CONCENTRATION” value (po, 30 mg/kg, 72 h, tissue Blood, route oral GAVAGE, dose level Low, time 3 day, vehicle .5 % CMC) stood at 37.2 G/DL.

For the compound THIMEROSAL, the HEMOGLOBIN (po, 0 mg/kg, 72 h, tissue Blood, route oral GAVAGE, dose level Control, time 3 day, vehicle 100 % WATER) was found to be 13.43 G/DL. Moreover, under setting [10], the ALBUMIN is given as 3.78 G/DL and the GLUCOSE turned out to be 169.33 mg/dL. Moreover, the NEUTROPHIL (po, 1 mg/kg, 120 h, tissue Blood, route oral GAVAGE, dose level Low, time 5 day, vehicle 100 % WATER) worked out at 9.33%. Moreover, where the note is “po, 10 mg/kg, 72 h, tissue Blood, route oral GAVAGE, dose level High, time 3 day, vehicle 100 % WATER”, the “ABSOLUTE LYMPHOCYTE” value was determined as 12478.33 CELLS/uL. Also, the “MEAN CORPUSCULAR HEMOGLOBIN CONCENTRATION” value (po, 10 mg/kg, 120 h, tissue Blood, route oral GAVAGE, dose level High, time 5 day, vehicle 100 % WATER) was determined as 39.37 G/DL.

`O=C(CCCN1CCC(O)(c2ccc(Cl)cc2)CC1)c1ccc(F)cc1` [HALOPERIDOL]: the “ERYTHROCYTE COUNT” value amounted to 5.45 x10E6/uL (po, 1 mg/kg, 120 h, tissue Blood, route oral GAVAGE, dose level Low, time 5 day, […]); 6.17 x10E6/uL (po, 21 mg/kg, 72 h, tissue Blood, route oral GAVAGE, dose level High, time 3 day, […]); 5.96 x10E6/uL (po, 21 mg/kg, 120 h, tissue Blood, route oral GAVAGE, dose level High, time 5 day, […]).

Consider `OCCOCCN1CCN(C2=Nc3ccccc3Sc3ccccc32)CC1` [QUETIAPINE], for which the PHOSPHORUS came out at 11.4 mg/dL (po, 47 mg/kg, 72 h, tissue Plasma, route oral GAVAGE, dose level Low, time 3 day, vehicle .5 % CMC); 14.33 mg/dL under setting [11]; 12.27 mg/dL under setting [13]. For the same compound, the “ALKALINE PHOSPHATASE” value under setting [11] came to 292.33 u/L, the “ALKALINE PHOSPHATASE” value under setting [12] turned out to be 332 u/L and the “ALKALINE PHOSPHATASE” value under setting [13] is 307.33 u/L. This compound also displayed a CHLORIDE under setting [12] of 101.67 MEQ/L.
